# A selection: hits, their analogues and other compounds. The true share with any hit is near 1.8%.
# E-selectin induc: E-selectin induction on HUVECs | HUVEC E-selectin immunofluorescence imaging; normalized: neutral wells 0, TNF-alpha wells 100 | activation, % at 7.58 µM | actives 0.37% (n = 260,000) | P16581;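 active = mean E-selectin-positive cell signal at least 10% of the positive control, reached in at least 60% of replicates, without over 20% cell loss; inconclusive = no rule given, readout overlaps actives, possibly toxicity-flagged; inactive = the rest, including those meeting only one limit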
#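 Assay system: HUVEC primary endothelial cells. Input: 3,000 HUVEC seeded per well. Doses: one compound dose added by pin transfer. Read-out basis: % PE-positive cells. Benchmarks: TNF-alpha high, DMSO low. Detection: immunofluorescence imaging. Buffer or medium: EGM-2, gelatin.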
# UUG fidelity: modulators of yeast start codon fidelity, primary screen, whole organism, S. cerevisiae, single point, plate reader | AID 602363, 2012 | actives 0.13% (n = 350,000) | activity score, % at 18.7 µM | S. cerevisiae UUG-firefly luciferase reporter, luminescence/redox ratio;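 active means replicate mean at a twofold rise or more, about +100% in these data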;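 further: firefly luciferase made from a UUG start codon reports start codon fidelity; reporter light over untreated wells divided by growth signal over untreated wells; some hits fall short of that in this replicate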
# RAD54 branch: inhibitors of human RAD54 branch migration. inhibition, % at 10.4 µM. actives 0.14% (n = 360,000). RAD54 Holliday junction branch migration, FAM/BHQ fluorescence;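 active = mean normalized replicate activity at least 40 and at least half of replicates scoring 40 or more; inconclusive = only one of the two criteria met; inactive = mean below 40 and under half of replicates reaching 40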;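 note: 0% = median of neutral control wells and 100% = median of positive control wells; inhibitors cause a drop in the FAM fluorescence signal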
# MLL AF4-AF9 inh: inhibitors of human MLL-AF4/AF9 interaction; P42568; AlphaScreen, biotin-AF4 peptide binding to FLAG-AF9; inhibition, % at 10 µM; actives 0.47% (n = 350,000);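 active = every replicate reaching a set inhibition limit, whatever the replicate mean, cut at about 25% in these data; inconclusive = mean inhibition reaches that limit but some replicates miss it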;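 note: 0% = plate neutral control median and 100% = total signal loss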
# RAD52 anneal inh: inhibitors of human RAD52 DNA annealing | recombinant RAD52 DNA annealing, FRET fluorescence | inhibition, % at 18.7 µM | actives 0.46% (n = 360,000) | AID 651710;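 active = every replicate showing at least 50% inhibition; inconclusive = mean inhibition at least 50% but not in every replicate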
# SIRT5 block: sirtuin-5 (human) deacylase inhibition | inhibition, % at 15 µM | Purified SirT5, succinyl-peptide AMC, trypsin-coupled fluorescence | actives 1.1% (n = 330,000); in the data active = inhibition above about 15%; inconclusive = no clear call, values can overlap the other calls
# RAD52 DNA ctr: binds DNA, flagging false RAD52 inhibitor hits | AC50, µM | shares compounds with RAD52 anneal inh | AID 652128 | Salmon sperm DNA/acridine orange FP displacement, DNA binding | actives 8% (n = 1,000);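 active = fitted half-maximal concentration for signal loss at or below twice the highest dose tested, in every separate run, actives reach about 64 µM in these data; inconclusive = runs disagree, or flat partial signal loss, or poor fit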
# * hit, by the source's call; i = inactive; ? = inconclusive; · = not tested or not shown.
# Start of the listing, in advance (3 entries):
SMILES,E-selectin induc,UUG fidelity,RAD54 branch,MLL AF4-AF9 inh,RAD52 anneal inh,SIRT5 block,RAD52 DNA ctr
C#CCOCCOCCOCCNc1nc(N2CCN(C(=O)[C@H](CCCCN)n3cc(CN)nn3)CC2)nc(N2CCN(C(=O)[C@H](CCC(=O)O)n3cc([C@@H](N)CCCCN)nn3)CC2)n1,0,20,-18,74*,61*,·,i
C#CCOCCOCCOCCNc1nc(N2CCN(C(=O)C([C@@H](C)O)n3cc([C@@H](N)CCCCN)nn3)CC2)nc(N2CCN(C(=O)[C@H](CCCCN)n3cc([C@@H](N)[C@H](C)CC)nn3)CC2)n1 (stereo partly specified),0,16,28,59*,72*,-7,i
C#CCOCCOCCOCCNc1nc(N2CCN(C(=O)[C@H](CCC(=O)O)n3cc(CN)nn3)CC2)nc(N2CCN(C(=O)[C@H](CCCCN)n3cc([C@@H](N)CC(N)=O)nn3)CC2)n1,7,-22,-14,1,-12,-6,·

# The listing, from the start:
SMILES,E-selectin induc,UUG fidelity,RAD54 branch,MLL AF4-AF9 inh,RAD52 anneal inh,SIRT5 block,RAD52 DNA ctr
C#CCOCCOCCOCCNc1nc(N2CCN(C(=O)[C@H](CCCCN)n3cc(CN)nn3)CC2)nc(N2CCN(C(=O)[C@H](CCC(=O)O)n3cc([C@@H](N)CCCCN)nn3)CC2)n1,0,20,-18,74*,61*,·,i
C#CCOCCOCCOCCNc1nc(N2CCN(C(=O)C([C@@H](C)O)n3cc([C@@H](N)CCCCN)nn3)CC2)nc(N2CCN(C(=O)[C@H](CCCCN)n3cc([C@@H](N)[C@H](C)CC)nn3)CC2)n1 (stereo partly specified),0,16,28,59*,72*,-7,i
C#CCOCCOCCOCCNc1nc(N2CCN(C(=O)[C@H](CCC(=O)O)n3cc(CN)nn3)CC2)nc(N2CCN(C(=O)[C@H](CCCCN)n3cc([C@@H](N)CC(N)=O)nn3)CC2)n1,7,-22,-14,1,-12,-6,·
C#CCOCCOCCOCCNc1nc(N2CCN(C(=O)CCCCCCCCCCNC(=O)[C@H](CCCCN)n3cc(CCO)nn3)CC2)nc(N2CCN(C(=O)CCCCCCCCCCNC(=O)[C@H](CCCCN)n3cc(CCCC(=O)O)nn3)CC2)n1,0,19,-2,55*,52*,-9,i
CCOC(=O)c1c(NC(=O)C[n+]2ccc(Cc3ccccc3)cc2)sc(C)c1C,·,·,·,17,50*,-5,i
Cc1c(C)n(C)c2ccc(C(=O)NCCCN3CCN(C)CC3)cc12,·,-11,10,14,74*,1,i
CN(C)CCNC(=O)c1cccc2[nH]c(-c3ccncc3)nc12,0,·,·,-1,50*,-11,52µM*
COc1ccc(C(=O)NCCN(C)C)c2nc3ccccc3cc12,1,·,·,7,91*,-2,25µM*
CN(C)CCNC(=O)c1ccccc1-c1cc2ccccc2c(=O)o1,0,-3,-12,-1,-4,0,·
CN(C)CCNC(=O)c1cccc2nc3c(ccc4ccccc43)nc12,8,·,·,?,95*,-6,14µM*
COc1cccc2nc3c(C(=O)NCCN(C)C)cccc3cc12,1,·,·,5,81*,-1,34µM*
COc1ccc(Cl)cc1C(=O)NCCN(C)C,·,-19,7,·,·,·,·

# The closing two entries of the section above come first, to join the parts.
SMILES,E-selectin induc,UUG fidelity,RAD54 branch,MLL AF4-AF9 inh,RAD52 anneal inh,SIRT5 block,RAD52 DNA ctr
COc1cccc2nc3c(C(=O)NCCN(C)C)cccc3cc12,1,·,·,5,81*,-1,34µM*
COc1ccc(Cl)cc1C(=O)NCCN(C)C,·,-19,7,·,·,·,·
CN(C)CCNC(=O)c1ccccc1-c1ccccc1,·,12,10,·,·,·,·
C[C@@H]1CN([C@H](C)CO)C(=O)c2cccc(NC(=O)Nc3cccc4ccccc34)c2O[C@@H]1CN(C)C,·,·,·,7,5,-2,·
C[C@@H]1CN([C@H](C)CO)C(=O)c2cc(C#CC(C)(C)O)cnc2O[C@@H]1CN(C)Cc1cncnc1,0,14,-3,-7,3,-1,·
COc1ccc(-c2coc3c(C(=O)NCCN(C)C)cccc23)c(C)c1,0,-4,13,8,26,-7,·
COc1ccc(-c2nc3c(C(=O)NCCN(C)C)cccc3c3ccccc23)cc1,1,·,·,19,101*,-6,?
Cc1ccc(S(=O)(=O)N(C)C[C@H]2Oc3ccc(NS(C)(=O)=O)cc3C(=O)N([C@H](C)CO)C[C@H]2C)cc1,0,-3,2,-3,-6,-1,·
CCN(CC)CCOC(=O)c1ccc(N/C=C(/C#N)c2nc(-c3ccc(OC)c(OC)c3)cs2)cc1,0,·,·,6,70*,0,i
COc1ccc2nc(C)cc(Nc3ccc(N4CCN(C)CC4)cc3)c2c1,0,-20,98*,15,100*,2,42µM*
COc1ccc2nc(C)cc(NCCN3CCOCC3)c2c1,0,-18,23,2,3,0,·
CSC1SCC2C(=O)N(C)C(C(C)C)C(=O)OCC(NC(=O)c3cnc4ccccc4n3)C(=O)NC(C)C(=O)N(C)C1C(=O)N(C)C(C(C)C)C(=O)OCC(NC(=O)c1cnc3ccccc3n1)C(=O)NC(C)C(=O)N2C (stereo unspecified),-1,·,·,-2,72*,·,i
COc1ccc(OCC(O)CN2CCC(CN3C(=O)c4cccc5cccc(c45)C3=O)CC2)cc1 (stereo unspecified),5,·,·,8,96*,-6,i
COc1cccc(OCC(O)CN2CCN(CCN3C(=O)c4cccc5cccc(c45)C3=O)CC2)c1 (stereo unspecified),·,·,·,17,91*,5,?
COc1cc2c3c(cccc3c1)C(=O)N(CCN1CCCC1)C2=O,1,-16,106*,-1,71*,-20,31µM*
O=C1c2cccc3cccc(c23)C(=O)N1CCN1CCN(CC(O)COc2ccccc2)CC1 (stereo unspecified),0,-1,42,·,·,·,·
CC(C)(C)S(=O)N1Cc2cc(C(=O)NCc3ccc(Oc4ccccc4)cc3)nc(-c3cccc(C#CCC4CCCC4)c3)c2[C@@H]1CCO (stereo partly specified),20,·,·,-3,-65,-1,·
C[C@H](CO)N1C[C@H](C)[C@@H](CN(C)Cc2ccc(Cl)c(Cl)c2)Oc2ccc(NS(=O)(=O)c3cn(C)cn3)cc2CC1=O,·,0,9,5,-3,0,·
CN(C)C=Nc1ccc2nc3c(cc2c1)[nH]c1ccccc13,0,·,·,11,96*,-21,23µM*
NC1(N2SC(S)=C3CCCC=C32)CCCCC1,0,·,·,13,86*,·,i
COc1ccc2c(c1OC)c(=O)n1c3ccc(OC(C)C(=O)NCCN4CCOCC4)cc3c3ccnc2c31 (stereo unspecified),·,-3,97*,-1,66*,-8,?
O=C(C[C@H]1CC[C@H](NC(=O)c2ccncc2)[C@H](CO)O1)NCC1CC1,0,-3,-2,-4,-18,-3,·
O=C(O)c1cc(-n2nnnc2SCc2ccc([N+](=O)[O-])cc2)ccc1Cl,0,-13,-8,-12,105*,-2,i
OC(CNCCc1ccccc1)COc1ccc(OCC(O)CNCCc2ccccc2)cc1 (stereo unspecified),0,-7,2,2,-25,·,·
OC(CNCCc1ccc(Cl)cc1)COc1ccc2ccccc2c1 (stereo unspecified),0,-9,-5,0,53*,-3,i
CCC(=O)N1CC2(C1)[C@H](c1ccccc1)[C@@H](CO)N2CC1CCOCC1,0,·,·,-1,-1,3,·
c1cc2c3c(cccc3c1)NC1(CCCC1)N2,2,6,1,0,-5,1,·
CC1(C)Nc2cccc3cccc(c23)N1,0,-11,9,2,65*,-16,i
CN(CCCCCCCCCCN(C)C(=O)Oc1cccc([N+](C)(C)C)c1)C(=O)Oc1cccc([N+](C)(C)C)c1,2,13,-5,16,52*,-8,i

# Bioassay records (PubChem)
